These results are taken from patent US20050020576A1, “Kappa agonist compounds and pharmaceutical formulations thereof” (priority 1996, published 2005).

This assay deals with formalin-induced flinching. Nature of the assay: Formalin-induced nociception, late (tonic) phase flinching. It counts as in vivo, male Sprague-Dawley rats. The following applies: at 300 μg.

Molecules are shown by their SMILES.

On to `CN(C(=O)Cc1cccc(C(F)(F)F)c1[N+](=O)[O-])[C@@H]1CCCC[C@H]1N1CCCC1.Cl` (racemic), for which the “Late Phase Formalin % @ 300 μg” value was 86% @ 300 μg.
